For this experiment, the target named is T1, V1AR (Homo sapiens, UniProt P37288, DEL253-275).
T1 construct: expressed in transfected cells; host or cells: HEK 293T
Nature of the experiment: cAMP accumulation, V1AR. It is filed as cell-based. The conditions noted are these: V1R ∆ICL3; saturating agonist concentration; 500 µM IBMX. From the text: […]. The cells were washed once by repeating this procedure.
For orientation: cAMP levels reflect the balance of adenylyl cyclase and phosphodiesterase activity.

Protein sequences, listed by entry. Tags and fused reporters are not part of them. Chains listed by the source or under a name are the forms on record and can include a tag or linker.
UniProt P37288, with tags, fused parts or gaps DEL253-275: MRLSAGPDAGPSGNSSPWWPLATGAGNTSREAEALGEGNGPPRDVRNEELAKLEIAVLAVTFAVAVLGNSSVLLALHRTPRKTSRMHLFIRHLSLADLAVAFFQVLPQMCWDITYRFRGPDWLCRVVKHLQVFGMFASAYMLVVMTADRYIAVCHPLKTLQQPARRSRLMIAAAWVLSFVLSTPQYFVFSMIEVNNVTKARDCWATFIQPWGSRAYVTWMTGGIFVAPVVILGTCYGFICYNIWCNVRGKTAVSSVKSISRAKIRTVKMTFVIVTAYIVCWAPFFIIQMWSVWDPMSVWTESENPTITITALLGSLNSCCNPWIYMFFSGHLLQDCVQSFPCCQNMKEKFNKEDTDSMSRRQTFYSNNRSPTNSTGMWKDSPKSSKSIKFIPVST

Consider CYFQNCPRG-NH2 [Arginine vasopressin], for which the “cAMP (AU), Average” value was 0.0331 AU.

The values above are taken from paper PMC10033409, “Autoregulation of GPCR signalling through the third intracellular loop” (Nature, 2023).
